Data set [1] deals with T1, hERG (Homo sapiens, UniProt Q12809). In words: cell-based. As to conditions: (-LOG10(IC50), µM).
Data set [2] has as its target T1, hERG. As to conditions: read-out: IC50 reported in patch-clamp assay; cited from earlier work.
The target in data set [3] is T1, hERG. In words: Tox21 qHTS FluxOR thallium flux assay in hERG-U2OS cells.
In data set [4] the target is T1, hERG. Details: method as in PMID 29058187. As to conditions: read-out: IC50 reported in thallium flux; cited from earlier work.
For data set [5], the target named is T1, hERG.

The chains behind the UniProt entries cited, without tags or fusion partners. Where a name states a change or a piece, a line headed by the entry shows the natural chain unless it says otherwise.
UniProt Q12809: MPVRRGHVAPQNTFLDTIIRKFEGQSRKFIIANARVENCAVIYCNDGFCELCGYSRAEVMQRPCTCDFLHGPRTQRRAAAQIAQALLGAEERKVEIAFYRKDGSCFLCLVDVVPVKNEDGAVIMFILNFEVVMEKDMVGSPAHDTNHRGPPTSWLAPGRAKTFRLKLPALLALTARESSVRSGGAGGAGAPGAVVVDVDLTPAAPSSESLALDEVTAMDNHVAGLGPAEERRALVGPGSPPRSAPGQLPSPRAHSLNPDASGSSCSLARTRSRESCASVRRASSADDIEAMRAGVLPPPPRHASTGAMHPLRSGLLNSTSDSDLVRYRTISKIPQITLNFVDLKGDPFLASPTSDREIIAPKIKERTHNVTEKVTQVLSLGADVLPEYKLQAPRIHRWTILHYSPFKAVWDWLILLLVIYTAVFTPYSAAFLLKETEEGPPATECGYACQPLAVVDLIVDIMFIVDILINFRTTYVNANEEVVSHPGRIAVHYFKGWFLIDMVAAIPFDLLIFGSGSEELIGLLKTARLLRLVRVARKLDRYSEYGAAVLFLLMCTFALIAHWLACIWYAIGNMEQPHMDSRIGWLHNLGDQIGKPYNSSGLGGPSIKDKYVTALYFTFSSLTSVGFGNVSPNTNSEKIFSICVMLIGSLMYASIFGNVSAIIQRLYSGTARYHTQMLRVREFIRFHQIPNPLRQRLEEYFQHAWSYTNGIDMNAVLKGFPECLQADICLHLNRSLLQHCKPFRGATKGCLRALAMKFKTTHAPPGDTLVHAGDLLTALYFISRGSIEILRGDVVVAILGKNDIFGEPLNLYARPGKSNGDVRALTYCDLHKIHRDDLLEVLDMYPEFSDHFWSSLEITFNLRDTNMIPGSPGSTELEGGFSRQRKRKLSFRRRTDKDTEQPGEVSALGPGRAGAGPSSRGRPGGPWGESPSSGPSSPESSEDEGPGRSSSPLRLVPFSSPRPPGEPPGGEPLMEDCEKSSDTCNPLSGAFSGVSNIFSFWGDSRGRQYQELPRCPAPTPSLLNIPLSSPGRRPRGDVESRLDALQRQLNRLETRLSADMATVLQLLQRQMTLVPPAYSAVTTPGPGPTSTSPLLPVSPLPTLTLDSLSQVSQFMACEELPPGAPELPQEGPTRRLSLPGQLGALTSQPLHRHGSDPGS

The structures appear in SMILES notation. Where a name gives a salt, the structure may show the parent alone. Read-outs that look alike come from different tables or passages of the source.

This is an account of results in PMC8869358, “High-Throughput Chemical Screening and Structure-Based Models to Predict hERG Inhibition” (Biology, 2022).

On hERG [1], `C[C@@H](O)[C@H]1C(=O)N2C(C(=O)O)=C(S[C@@H]3CN[C@H](CNS(N)(=O)=O)C3)[C@H](C)[C@H]12` [Doripenem] gave an IC50 of 8.82 µM.

As for `Fc1ccc(C(OCCN2CCN(CCCc3ccccc3)CC2)c2ccc(F)cc2)cc1` [GBR 12909 dihydrochloride, GBR 12909 dihydrochloride (Vanoxerine)], the IC50 was 0.00084 µM at hERG [2]; 0.0756 µM against hERG [3] ((-LOG10(IC50), µM), Supplementary File S2, Tox21 chemical library); 0.075 µM on hERG [3] (IC50, hERG-U2OS cells, thallium flux, qHTS, 15 concentrations, three runs); 0.22 µM on hERG [4].

On to `O=C1C2(Cl)C3(Cl)C4(Cl)C(Cl)(Cl)C5(Cl)C3(Cl)C1(Cl)C5(Cl)C24Cl` (centres unmarked) [Kepone], for which the “activity outcome for hERG inhibition in the assay” value on hERG [5] is “inhibitory activity”.

Turning to `O[C@@H](c1cc(C(F)(F)F)nc2c(C(F)(F)F)cccc12)[C@H]1CCCCN1` [Mefloquine hydrochloride], at hERG [1], the IC50 is 15.7 µM.

For `CN1CCCCC1CCN1c2ccccc2Sc2ccc([S+](C)[O-])cc21` (centres unmarked) [Mesoridazine], the IC50 against hERG [1] is 7.56 µM.

As for `O=C1Cc2cc(CCN3CCN(c4nsc5ccccc45)CC3)c(Cl)cc2N1` [Ziprasidone], at hERG [1], the IC50 was 5.78 µM.

Take `CCOP(=S)(OCC)Oc1ccc([N+](=O)[O-])cc1` [parathion]: the “activity outcome for hERG inhibition in the assay” value at hERG [5] is on record as “inhibitory activity”.

`O=P(Oc1ccccc1)(Oc1ccccc1)Oc1ccccc1` [triphenyl phosphate]: the “activity outcome for hERG inhibition in the assay” value at hERG [5] was “inhibitory activity”.
